Values quoted from earlier work in article PMC9222203, “A Robust Assay to Monitor Ataxin-3 Amyloid Fibril Assembly” (Cells, 2022).

The chains behind the UniProt entries cited, without tags or fusion partners. Where a name states a change or a piece, a line headed by the entry shows the natural chain unless it says otherwise.
UniProt P54252: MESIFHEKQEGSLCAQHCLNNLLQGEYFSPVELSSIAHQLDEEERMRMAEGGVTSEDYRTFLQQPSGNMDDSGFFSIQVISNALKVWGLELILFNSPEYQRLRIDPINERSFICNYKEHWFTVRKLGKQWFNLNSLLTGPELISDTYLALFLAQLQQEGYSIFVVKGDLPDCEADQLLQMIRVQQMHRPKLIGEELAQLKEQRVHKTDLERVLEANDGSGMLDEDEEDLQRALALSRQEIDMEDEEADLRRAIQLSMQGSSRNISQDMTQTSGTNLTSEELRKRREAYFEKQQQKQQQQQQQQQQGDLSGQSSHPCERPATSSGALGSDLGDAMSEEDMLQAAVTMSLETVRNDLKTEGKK

Biological target: Ataxin-3 13Q (Homo sapiens) (UniProt P54252)
Assay: biophysical aggregation model
Details: cited from earlier work

In the case of Ataxin-3 13Q (from UniProt P54252), the Kd is given as 4.6 µM.
